In patent US20020090380A1, “Novel formulation comprising thymol useful in the treatment of drug resistant bacterial infections” (priority 2000, published 2002):

Test system: Ethidium bromide resistant strain of Mycobacterium smegmetis
Experiment: Growth in broth with drug, ethidium bromide resistant mutant
Type: cell-based

Compound: CC[n+]1c(-c2ccccc2)c2cc(N)ccc2c2ccc(N)cc21 [ethidium bromide]
- concentration at which the mutant grows well: 12 µg/mL
